Data on 1 molecule can be found in patent US9487818B2, “TOP2A inhibition by temozolomide and its predictive value of GBM patients survival” (COUNCIL OF SCIENTIFIC & INDUSTRIAL RESEARCH, priority 2010, dated 2016).

By UniProt entry, the sequences of proteins in these tests, tags left out. Where a name states a change or a piece, a line headed by the entry shows the natural chain unless it says otherwise.
UniProt P11388: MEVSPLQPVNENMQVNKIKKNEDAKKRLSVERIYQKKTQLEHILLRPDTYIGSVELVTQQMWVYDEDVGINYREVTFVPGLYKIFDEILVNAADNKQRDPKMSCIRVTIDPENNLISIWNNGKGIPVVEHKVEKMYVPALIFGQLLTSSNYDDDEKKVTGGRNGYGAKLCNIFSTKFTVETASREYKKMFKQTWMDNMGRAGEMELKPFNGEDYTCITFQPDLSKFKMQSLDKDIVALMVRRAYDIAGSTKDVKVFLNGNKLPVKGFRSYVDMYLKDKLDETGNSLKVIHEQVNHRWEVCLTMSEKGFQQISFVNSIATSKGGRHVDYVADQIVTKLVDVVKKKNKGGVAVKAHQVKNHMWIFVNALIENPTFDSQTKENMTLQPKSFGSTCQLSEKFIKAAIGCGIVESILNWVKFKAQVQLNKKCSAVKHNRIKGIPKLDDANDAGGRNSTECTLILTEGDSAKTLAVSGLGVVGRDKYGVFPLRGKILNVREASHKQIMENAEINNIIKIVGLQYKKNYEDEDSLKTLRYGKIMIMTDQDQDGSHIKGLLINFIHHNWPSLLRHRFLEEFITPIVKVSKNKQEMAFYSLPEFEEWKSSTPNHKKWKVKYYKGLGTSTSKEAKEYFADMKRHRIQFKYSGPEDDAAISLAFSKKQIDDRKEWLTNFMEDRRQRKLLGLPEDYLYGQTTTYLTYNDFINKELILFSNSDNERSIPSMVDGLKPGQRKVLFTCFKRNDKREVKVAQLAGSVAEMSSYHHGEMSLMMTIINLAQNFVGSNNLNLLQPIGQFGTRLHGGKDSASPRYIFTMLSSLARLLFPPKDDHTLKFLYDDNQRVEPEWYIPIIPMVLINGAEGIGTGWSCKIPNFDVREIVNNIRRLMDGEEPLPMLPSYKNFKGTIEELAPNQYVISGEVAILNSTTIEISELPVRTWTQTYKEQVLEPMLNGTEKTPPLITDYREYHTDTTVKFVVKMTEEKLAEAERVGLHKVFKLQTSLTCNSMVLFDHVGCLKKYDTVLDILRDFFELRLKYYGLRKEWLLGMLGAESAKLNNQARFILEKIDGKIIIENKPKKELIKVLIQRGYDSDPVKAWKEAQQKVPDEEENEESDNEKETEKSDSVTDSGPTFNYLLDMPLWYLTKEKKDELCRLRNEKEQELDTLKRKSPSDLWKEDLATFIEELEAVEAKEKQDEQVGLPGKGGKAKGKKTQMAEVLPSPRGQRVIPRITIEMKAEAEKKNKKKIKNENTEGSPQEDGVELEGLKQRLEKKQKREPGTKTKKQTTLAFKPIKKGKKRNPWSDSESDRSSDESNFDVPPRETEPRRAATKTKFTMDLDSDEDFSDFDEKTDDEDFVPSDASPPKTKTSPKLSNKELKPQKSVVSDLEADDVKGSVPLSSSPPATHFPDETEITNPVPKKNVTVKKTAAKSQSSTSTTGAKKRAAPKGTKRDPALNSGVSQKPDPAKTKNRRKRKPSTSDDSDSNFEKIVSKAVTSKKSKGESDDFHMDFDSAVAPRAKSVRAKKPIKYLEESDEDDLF

For this experiment, the target named is T1, TOP2A (Homo sapiens, UniProt P11388).
T1 construct: 2 units of TOP2A (Topgen Cat#200H-2); purchased Topgen 200H-2
As to the kind of experiment: TOP2A enzyme assay (plasmid relaxation assay). Type of experiment: biochemical. As to conditions: supercoiled plasmid DNA pBR322, 2 units TOP2A, 37° C. 30 min, increasing concentrations. The method, then:
A plasmid relaxation assay by TOP2A enzyme was carried out in the absence of etoposide (lane 2) or increasing concentrations of etoposide (lane 3-5) or ethanol (vehicle control) (lane 6).
A plasmid relaxation activity by TOP2A enzyme was carried out in the absence of temozolomide (lane 2) or increasing concentrations of temozolomide (lane 3-4) or DMSO (vehicle control) (lane 5).
TOP2A activity was measured in vitro using a plasmid relaxation assay. Briefly, relaxation assays contained plasmid DNA (pBR322; 200 ng per reaction) and 2 units of TOP2A (Topgen Cat#200H-2) in a final volume of 30 μl in topoisomerase II reaction buffer (50 mM Tris-Cl at pH 8.0, 150 mM KCl, 10 mM MgCl2, 5 mM ATP, 0.5 mM DTT, 30 μg/ml BSA). The reactions were incubated at 37° C. for 30 min, and terminated by the addition of 2.5 μl loading dye (30% glycerol and 0.25% bromophenol blue). The samples were analyzed on 1% native agarose gel (without any intercalator). Gels were stained with ethidium bromide for 10-15 min. To determine the effect of the etoposide or temozolomide, specific amounts were added in the reaction mixture.
To test this possibility, we carried out TOP2A enzyme assay in which the ability of TOP2A (170 kDa) enzyme to relax the super coiled plasmid DNA in the presence of temozolomide was evaluated. […]

For the molecule `COc1cc([C@@H]2c3cc4c(cc3[C@@H](O[C@@H]3O[C@@H]5CO[C@@H](C)O[C@H]5[C@H](O)[C@H]3O)[C@H]3COC(=O)[C@H]23)OCO4)cc(OC)c1O` [etoposide], the “inhibition of TOP2A relaxation activity” value is given as “inhibited the TOP2A relaxation activity very efficiently in a concentration dependent manner”.
